Measured values published in article PMC4394048 (Molecular cancer therapeutics, 2015).

By UniProt entry, the sequences of proteins in these tests, tags left out. Where a name states a change or a piece, a line headed by the entry shows the natural chain unless it says otherwise.
UniProt Q9Y6L6: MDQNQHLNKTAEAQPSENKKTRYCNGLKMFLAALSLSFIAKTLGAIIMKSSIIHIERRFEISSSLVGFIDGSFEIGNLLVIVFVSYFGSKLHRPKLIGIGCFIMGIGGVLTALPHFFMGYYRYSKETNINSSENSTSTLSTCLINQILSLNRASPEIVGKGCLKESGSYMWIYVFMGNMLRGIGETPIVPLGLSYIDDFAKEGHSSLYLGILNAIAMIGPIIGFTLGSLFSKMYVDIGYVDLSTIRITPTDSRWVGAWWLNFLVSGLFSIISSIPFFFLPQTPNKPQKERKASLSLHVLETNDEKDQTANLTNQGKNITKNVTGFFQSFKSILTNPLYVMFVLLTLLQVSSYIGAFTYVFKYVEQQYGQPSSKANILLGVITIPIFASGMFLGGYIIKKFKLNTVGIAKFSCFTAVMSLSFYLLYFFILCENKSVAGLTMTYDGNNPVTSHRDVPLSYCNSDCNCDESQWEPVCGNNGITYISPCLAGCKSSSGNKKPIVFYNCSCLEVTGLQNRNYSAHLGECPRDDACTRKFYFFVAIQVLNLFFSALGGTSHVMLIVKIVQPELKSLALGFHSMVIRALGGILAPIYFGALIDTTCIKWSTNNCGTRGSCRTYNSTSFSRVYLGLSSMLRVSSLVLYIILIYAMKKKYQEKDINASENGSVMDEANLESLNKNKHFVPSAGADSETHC
UniProt Q9NPD5, whole entry M233I: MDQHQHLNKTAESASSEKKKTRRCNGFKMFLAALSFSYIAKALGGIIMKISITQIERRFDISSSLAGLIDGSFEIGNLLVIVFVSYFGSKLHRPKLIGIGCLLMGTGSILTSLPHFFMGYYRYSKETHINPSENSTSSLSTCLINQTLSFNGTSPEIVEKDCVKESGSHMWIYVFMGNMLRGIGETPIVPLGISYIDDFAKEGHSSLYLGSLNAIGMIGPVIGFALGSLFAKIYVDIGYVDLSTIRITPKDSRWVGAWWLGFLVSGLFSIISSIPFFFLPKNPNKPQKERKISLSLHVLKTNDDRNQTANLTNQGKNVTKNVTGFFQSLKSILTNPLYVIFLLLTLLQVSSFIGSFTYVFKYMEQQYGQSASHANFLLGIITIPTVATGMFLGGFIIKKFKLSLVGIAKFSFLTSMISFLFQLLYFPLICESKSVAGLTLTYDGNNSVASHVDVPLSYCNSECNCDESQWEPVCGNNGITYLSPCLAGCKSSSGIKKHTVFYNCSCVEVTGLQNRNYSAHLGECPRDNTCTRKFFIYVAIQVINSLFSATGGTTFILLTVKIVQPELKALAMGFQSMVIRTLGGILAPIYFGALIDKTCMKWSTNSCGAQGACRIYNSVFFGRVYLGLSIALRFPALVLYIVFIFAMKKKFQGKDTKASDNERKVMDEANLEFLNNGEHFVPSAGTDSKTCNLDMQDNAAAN
UniProt Q9NPD5, whole entry S112A/M233I: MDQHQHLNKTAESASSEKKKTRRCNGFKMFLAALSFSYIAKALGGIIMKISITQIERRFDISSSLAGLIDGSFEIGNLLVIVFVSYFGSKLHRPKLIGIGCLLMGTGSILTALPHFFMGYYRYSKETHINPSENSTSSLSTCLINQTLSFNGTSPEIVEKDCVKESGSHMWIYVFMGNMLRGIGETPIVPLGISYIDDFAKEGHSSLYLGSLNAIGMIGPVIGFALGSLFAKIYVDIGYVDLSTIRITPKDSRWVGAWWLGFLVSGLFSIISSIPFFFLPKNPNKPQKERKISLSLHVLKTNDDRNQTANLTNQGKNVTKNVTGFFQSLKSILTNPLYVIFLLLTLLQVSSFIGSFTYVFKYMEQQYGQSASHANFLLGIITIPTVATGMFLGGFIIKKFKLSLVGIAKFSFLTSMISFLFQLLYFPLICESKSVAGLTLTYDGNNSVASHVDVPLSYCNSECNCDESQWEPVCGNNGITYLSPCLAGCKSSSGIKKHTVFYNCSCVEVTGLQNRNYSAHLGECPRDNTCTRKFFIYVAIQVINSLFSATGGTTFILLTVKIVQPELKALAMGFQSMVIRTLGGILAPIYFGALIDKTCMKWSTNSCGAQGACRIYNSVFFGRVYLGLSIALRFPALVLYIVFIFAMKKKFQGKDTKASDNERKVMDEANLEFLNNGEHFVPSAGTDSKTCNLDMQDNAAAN
UniProt Q9NPD5, whole entry H520P: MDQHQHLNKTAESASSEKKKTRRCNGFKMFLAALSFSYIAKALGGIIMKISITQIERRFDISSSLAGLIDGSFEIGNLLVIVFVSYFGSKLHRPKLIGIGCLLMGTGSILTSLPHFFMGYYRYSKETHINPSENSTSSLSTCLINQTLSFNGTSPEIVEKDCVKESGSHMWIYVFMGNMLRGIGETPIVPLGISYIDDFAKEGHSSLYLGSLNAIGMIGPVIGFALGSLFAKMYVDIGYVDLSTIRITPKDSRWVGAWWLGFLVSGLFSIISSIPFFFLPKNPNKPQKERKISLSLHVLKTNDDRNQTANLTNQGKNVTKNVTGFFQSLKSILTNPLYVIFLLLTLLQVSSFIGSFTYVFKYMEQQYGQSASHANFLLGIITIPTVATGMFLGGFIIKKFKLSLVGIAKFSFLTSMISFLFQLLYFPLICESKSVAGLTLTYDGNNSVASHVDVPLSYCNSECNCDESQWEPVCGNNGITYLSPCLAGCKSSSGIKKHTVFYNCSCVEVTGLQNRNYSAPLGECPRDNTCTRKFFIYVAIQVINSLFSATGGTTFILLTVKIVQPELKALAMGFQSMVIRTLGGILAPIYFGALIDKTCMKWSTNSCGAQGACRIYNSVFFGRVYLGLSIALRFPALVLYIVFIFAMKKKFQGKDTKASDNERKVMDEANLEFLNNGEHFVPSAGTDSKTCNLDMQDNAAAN
UniProt Q9NPD5, whole entry V560A: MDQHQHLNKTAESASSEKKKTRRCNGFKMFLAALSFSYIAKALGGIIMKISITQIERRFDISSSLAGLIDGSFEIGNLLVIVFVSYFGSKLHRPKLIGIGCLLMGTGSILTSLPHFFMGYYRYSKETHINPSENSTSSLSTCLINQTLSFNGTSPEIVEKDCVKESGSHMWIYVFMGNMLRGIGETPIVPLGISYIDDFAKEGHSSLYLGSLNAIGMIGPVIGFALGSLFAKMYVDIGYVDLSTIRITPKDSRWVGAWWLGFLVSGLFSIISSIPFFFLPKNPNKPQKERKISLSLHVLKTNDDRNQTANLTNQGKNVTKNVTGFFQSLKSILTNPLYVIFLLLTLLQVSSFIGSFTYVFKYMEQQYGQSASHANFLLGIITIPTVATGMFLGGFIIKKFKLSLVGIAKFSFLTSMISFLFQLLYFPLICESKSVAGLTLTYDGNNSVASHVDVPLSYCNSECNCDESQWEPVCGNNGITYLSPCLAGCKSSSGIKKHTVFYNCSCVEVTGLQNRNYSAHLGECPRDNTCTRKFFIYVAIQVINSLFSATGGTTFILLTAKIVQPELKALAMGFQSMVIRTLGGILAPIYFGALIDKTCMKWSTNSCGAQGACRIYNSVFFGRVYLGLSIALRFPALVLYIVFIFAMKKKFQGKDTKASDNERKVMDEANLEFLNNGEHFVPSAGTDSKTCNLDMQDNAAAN

Assays:
OATP1B1 = OATP1B1 (Homo sapiens, UniProt Q9Y6L6); assay: Docetaxel transport kinetics in HeLa cells expressing OATP1B1; details: high affinity, low capacity component, 0.1-300 μM
[1] = cited from earlier work
[2] = Docetaxel distribution in Slco1b2−/− and wild-type mice
OATP1B3 variants [3] = biological target: OATP1B3 variants (Homo sapiens, UniProt Q9NPD5, M233I)
OATP1B3 variants [4] = biological target: OATP1B3 variants (Homo sapiens, UniProt Q9NPD5, M233I/S112A)
OATP1B3 variants [5] = biological target: OATP1B3 variants (Homo sapiens, UniProt Q9NPD5, H520P)
OATP1B3 variants [6] = biological target: OATP1B3 variants (Homo sapiens, UniProt Q9NPD5, V560A)

CC(=O)O[C@@]12CO[C@@H]1C[C@H](O)[C@@]1(C)C(=O)[C@H](O)C3=C(C)[C@@H](OC(=O)[C@H](O)[C@@H](NC(=O)OC(C)(C)C)c4ccccc4)C[C@@](O)([C@@H](OC(=O)c4ccccc4)[C@H]21)C3(C)C [docetaxel]
Vmax (OATP1B1): 37.7 ± 47.2 pmol/mg/min | decrease in clearance in Slco1b2−/− mice [1]: 18 fold | plasma AUC in Slco1b2−/− mice relative to wild-type mice (greater) ([2]; 1 mg/kg intravenous, male mice): ~ 5.5 fold | liver-to-plasma ratio, decrease in Slco1b2−/− versus wild-type mice ([2]; 30 min after 1 mg/kg intravenous, p < 0.05): ~ 3 fold | plasma concentrations in Slco1b2−/− mice, higher than wild-type mice ([2]; p<0.01): ~5.5 fold | docetaxel uptake relative to wild-type OATP1B3*1 (OATP1B3 variants [3]): impaired docetaxel transport | docetaxel uptake relative to wild-type OATP1B3*1 (OATP1B3 variants [4]): impaired docetaxel transport | docetaxel uptake relative to wild-type OATP1B3*1 (OATP1B3 variants [5]): impaired docetaxel transport | docetaxel uptake relative to wild-type OATP1B3*1 (OATP1B3 variants [6]): impaired docetaxel transport
